# Rango complex inh = Rango-importin beta binding inhibition | Rango CFP/YFP FRET sensor + importin beta, 45 min | actives 0.031% (n = 340,000) | AID 540263 | Potency, µM (top dose mostly 92.2 µM), for inactives: top-dose inhibition of complex formation; calls by dose curve;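 further: 0% = DMSO wells and 100% = buffer wells lacking importin beta; nearly all actives have a fitted effect of over 15% in size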
#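 FRET biosensor (snurportin 1 IBB flanked by EYFP and cerulean), 50 nM, with compound 5 min, then 0.125 microM importin beta in PBS, 1 mM DTT, 0.02% Tween-20, 0.1% BSA. CFP/YFP ratio read after 45 min at room temperature; pre-read flags interference.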
# Rango dissoc inh = inhibitors of RanGTP-induced Rango-importin beta complex dissociation; O95149+P62826; Biochemical FRET Rango-importin beta, RanGTP-induced dissociation; Potency, µM (series often up to 46.1 µM), inactives show at the top dose activity change, negative = inhibition; actives 0.071% (n = 340,000); calls by dose curve; further: % of control where 0% means no effect; nearly all actives have a fitted effect of over 45% in size
#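 Compounds sat 5 min at room temperature with 0.1 uM Rango biosensor plus 0.25 uM importin beta, then FRET pre-read. RanGTP-RCC1 (0.6 uM Ran, 2mM GTP, 0.2 uM RCC1) added for 45 min, and the CFP/YFP post-read measured blocked complex dissociation.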
# EPAC2 ag = EPAC2 (human) agonism; Q8WZA2; EPAC2 activation, biochemical qHTS; response scale: 100% = 6.5 mM cAMP response; Potency, µM (doses to about 154 µM), without a hit: at the highest dose activation, usual class: activators; actives 0.079% (n = 360,000); AID 720711; further: nearly all actives have a fitted effect of over 50% in size
#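 Compounds were titrated in qHTS against a Rap1B-BODIPY-GDP (250 nM) complex with EPAC2 (100 nM) and GDP (50 uM). BODIPY-GDP release tracked at 480/540 nm over 30 min at room temperature, normalized to 6.5 mM cAMP.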
# EPAC1 ag = agonists of human EPAC1; actives 0.073% (n = 360,000); EPAC1 agonist qHTS, biochemical assay; response scale: 100% = response to 6.5 mM cAMP; Potency, µM (doses to about 154 µM), without a hit: top-dose activation, actives largely listed as activators; further: nearly all actives have a fitted effect of over 60% in size
#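 Nucleotide exchange assay: 100 nM EPAC1 with 250 nM Rap1B loaded with BODIPY-GDP and 50 uM GDP, room temperature. Fluorescence (480/540 nm) read every 5 min for 30 min; signal change normalized to 6.5 mM cAMP as full agonist.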
# EPAC1 antagonist = EPAC1 (human) antagonism | EPAC1 GEF assay, Rap1b-BODIPY-GDP exchange fluorescence | Potency, µM (highest dose often 115 µM), for inactives: top-dose activity change, negative = inhibition, usual class: inhibitors | actives 0.14% (n = 360,000) | O95398 | AID 720709;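 further: plate controls were vehicle for no effect and positive control for full effect; nearly all actives have a fitted effect of over 50% in size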
# EPAC2 antag = antagonists of human EPAC2; Q8WZA2; actives 0.18% (n = 360,000); AID 720708; Potency, µM (top dose mostly 114 µM), inactives show at the highest dose activity, negative = inhibition, usual class: inhibitors; EPAC2 GEF exchange of Rap1B-BODIPY-GDP, fluorescence; further: on the % scale 0 is the no-effect control and ±100 the full control effect; nearly all actives have a fitted effect of over 45% in size
# Numbers without * were called inactive; i = inactive; ? = inconclusive; nt = no result. Only some compounds are listed: those with a hit (about 0.43% of all), similar ones and a draw of the others. Unless noted, the call rests on the fitted dose curve; in most records, active means well fitted curve in the direction sought with a large enough effect; inconclusive means small, poorly fitted or top-dose-only effect, or another doubt; inactive means no such curve, though single readings can be large; an effect the other way counts as inactive or inconclusive. Potency means the concentration at half of the fitted maximal effect.
(1) Cc1ccc(S(=O)(=O)N(CCC(=O)O)c2ccccc2)cc1
(2) COCCN(C(=O)CSCC(=O)Nc1cccc(C)c1)c1c(N)n(Cc2ccccc2)c(=O)[nH]c1=O
(3) CCCn1c(N)c(N(CCOC)C(=O)CSCC(=O)Nc2cccc(C)c2)c(=O)[nH]c1=O
(4) O=C(NNC(=O)c1cnccc1C(F)(F)F)c1ccccc1
(5) O=C(Nc1ccc(N2CCOCC2)cc1)c1ccc(S(=O)(=O)N2CCCCC2)cc1
(6) CCc1cccc2cc3c(N)c(C(=O)Nc4ccc(S(=O)(=O)N5CCCC5)cc4)sc3nc12

entry no.	1	2	3	4	5	6
Rango complex inh	2%	-1%	1%	1%	-2%	?
Rango dissoc inh	6%	-3%	31%	-7%	21%	?
EPAC2 ag	-3%	5%	3%	3%	26%	-100%
EPAC1 ag	-2%	-9%	100µM*	4%	-8%	-324%
EPAC1 antagonist	11%	-7%	-15%	2%	-1%	50µM*
EPAC2 antag	16%	3%	9%	0%	18%	56µM*

# Part of the list above, as labelled records.
5. O=C(Nc1ccc(N2CCOCC2)cc1)c1ccc(S(=O)(=O)N2CCCCC2)cc1
  Rango complex inh = -2%
  Rango dissoc inh = 21%
  EPAC2 ag = 26%
  EPAC1 ag = -8%
  EPAC1 antagonist = -1%
  EPAC2 antag = 18%

6. CCc1cccc2cc3c(N)c(C(=O)Nc4ccc(S(=O)(=O)N5CCCC5)cc4)sc3nc12
  Rango complex inh = ?
  Rango dissoc inh = ?
  EPAC2 ag = -100%
  EPAC1 ag = -324%
  EPAC1 antagonist = 50µM*
  EPAC2 antag = 56µM*

# (further entries)
(7) Cc1cccc2cc3c(N)c(C(=O)Nc4ccc(N5CCOCC5)cc4)sc3nc12
(8) CC[C@H](C)/C=C/C1=CC2=C(Cl)C(=O)[C@@]3(C)OC(=O)C(C(=O)[C@H](C)[C@@H](C)O)=C3C2=CO1
(9) CCN(CC(=O)Nc1ccc(NC(C)=O)cc1)C(=O)C1CC(=O)N(CCc2ccc(OC)c(OC)c2)C1 (stereo not given)
(10) O=C(O)C(c1ccccc1)N1C(=O)/C(=C\c2ccc(-c3ccccc3Cl)o2)SC1=S (stereo not given)
(11) O=C(O)C(c1ccccc1)N1C(=O)/C(=C\c2ccc(-c3ccc(Br)cc3)o2)SC1=S (stereo not given)
(12) Cc1cc[n+](CC(=O)N2CCCc3ccccc32)cc1

entry no.	7	8	9	10	11	12
Rango complex inh	7%	?	0%	?	?	-2%
Rango dissoc inh	14%	?	9%	?	?	-4%
EPAC2 ag	28%	-14%	3%	112µM*	-21%	7%
EPAC1 ag	14%	-21%	-7%	-131%	7%	4%
EPAC1 antagonist	-4%	50µM*	-3%	42%	-6%	9%
EPAC2 antag	-1%	?	10%	90%	86%	0%

# Some values from the list:
# Under EPAC2 ag, CCN(CC(=O)Nc1ccc(NC(C)=O)cc1)C(=O)C1CC(=O)N(CCc2ccc(OC)c(OC)c2)C1 (stereo not given) has the entry 3%
# Under EPAC1 antagonist, Cc1cc[n+](CC(=O)N2CCCc3ccccc32)cc1 has the entry 9%
# Under EPAC2 ag, O=C(O)C(c1ccccc1)N1C(=O)/C(=C\c2ccc(-c3ccc(Br)cc3)o2)SC1=S (stereo not given) has the entry -21%
# Under EPAC2 ag, CC[C@H](C)/C=C/C1=CC2=C(Cl)C(=O)[C@@]3(C)OC(=O)C(C(=O)[C@H](C)[C@@H](C)O)=C3C2=CO1 has the entry -14%

# (listing goes on)
(13) CCCN(CCC)Cc1cc(=O)oc2cc(OC)c(Cl)cc12
(14) C=CCN(CC=C)Cc1cc(=O)oc2cc(OC)c(Cl)cc12
(15) Cn1cccc1/C=C1\CCC/C(=C\c2cccn2C)C1=O
(16) O=S(=O)(c1ccccc1)N1CCN=C1SCc1ccccc1
(17) Cc1ccc(C(=O)N2CCN(c3ccccc3)CC2)cc1S(=O)(=O)N1CCOCC1
(18) CCOc1ccc2c(ccc(/C=C/c3cc(C)c4cccnc4c3O)[n+]2C)c1

entry no.	13	14	15	16	17	18
Rango complex inh	nt	nt	?	-1%	-1%	?
Rango dissoc inh	nt	nt	?	-3%	16%	-31%
EPAC2 ag	0%	14%	-21%	19%	2%	?
EPAC1 ag	-12%	-4%	100µM*	17%	-8%	63µM*
EPAC1 antagonist	-3%	-20%	19%	-13%	56µM*	35µM*
EPAC2 antag	?	32µM*	?	-22%	-6%	40µM*

(19) Cc1cc(C(=O)Nc2ccon2)c(C)o1
(20) O=C(Nc1ccccc1Cc1ccccc1)c1ccccc1NS(=O)(=O)c1ccc(Cl)s1
(21) COc1ccccc1CCC(=O)Nc1ccc2c(c1)CN(Cc1ccc(CO)o1)CC2
(22) Cc1nc2ccccc2n2c(O)c(CC(=O)O)cc12
(23) Cc1nc2ccccc2n1CCC(=O)O
(24) C/C(=N\Nc1ccc(C(=O)O)cc1)c1ccc2c(c1)Nc1ccccc1S2

entry no.	19	20	21	22	23	24
Rango complex inh	-1%	1%	?	?	0%	?
Rango dissoc inh	-9%	17%	-9%	?	11%	?
EPAC2 ag	3%	13%	3%	112µM*	-6%	0%
EPAC1 ag	-8%	11%	-10%	?	-6%	2%
EPAC1 antagonist	50µM*	-31%	-14%	26%	1%	3%
EPAC2 antag	8%	32µM*	-3%	46%	4%	-15%

(25) COc1cccc2cc(/C(=N/O)c3ccccc3)oc12
(26) c1ccc(-n2nnnc2-n2ccnc2)cc1
(27) CC(C)NC(=O)C1=NN(c2ccccc2)C(=O)CC1
(28) COc1ccc(NC(=O)C2=NN(c3ccccc3)C(=O)CC2)cn1
(29) Cc1ccccc1S(=O)(=O)N(CC(O)CN1CCCCC1)c1ccccc1 (stereo not given)
(30) Cc1ccc(O)c(NC(=O)CSc2n[nH]c(-c3ccccc3)n2)c1

entry no.	25	26	27	28	29	30
Rango complex inh	1%	1%	-1%	52µM*	6%	2%
Rango dissoc inh	29%	-4%	?	0%	-3%	2%
EPAC2 ag	23%	10µM*	-2%	-1%	4%	4%
EPAC1 ag	6%	-5%	1%	?	9%	10%
EPAC1 antagonist	-19%	-15%	-6%	i	1%	12%
EPAC2 antag	50µM*	-1%	-4%	2%	-3%	-1%

(31) O=C(CSc1n[nH]c(-c2ccccc2)n1)c1ccc(O)c(O)c1
(32) Cc1cc(SCC(=O)c2ccc(O)c(O)c2)nc2ccccc12
(33) Cn1c(=O)c2c(nc(Oc3ccccc3Cl)n2C)n(C)c1=O
(34) CC(C)CCn1c(Oc2ccccc2Cl)nc2c1c(=O)n(C)c(=O)n2C
(35) CC(C)CC1=NC(C(F)(F)F)(C(F)(F)F)c2c(n(CC(C)C)c(=O)[nH]c2=O)N1
(36) Cc1cc(C)c2nc(N3C(=O)C(O)=C(C(=O)c4ccco4)C3c3ccco3)sc2c1 (stereo not given)

entry no.	31	32	33	34	35	36
Rango complex inh	6%	-3%	2%	0%	0%	?
Rango dissoc inh	-12%	-15%	5%	7%	0%	?
EPAC2 ag	10%	19%	7%	0%	-12%	5%
EPAC1 ag	-1%	13%	-14%	1%	-6%	-12%
EPAC1 antagonist	35µM*	28µM*	-18%	-12%	-2%	50µM*
EPAC2 antag	1%	-30%	-11%	32µM*	-2%	-7%

(37) COc1cc(NC(=O)Nc2nc(C(N)Cc3ccc(C(F)(F)F)cc3)cs2)cc(OC)c1OC (stereo not given)
(38) O=C(NCCc1nc2ccccc2[nH]1)Nc1ccccc1
(39) O=C(O)c1cc(N2N=C(C(F)(F)F)/C(=C/C=C/c3ccco3)C2=O)ccc1Cl
(40) CCOC(=O)c1cnc(-c2ccccc2)nc1N(C)C
(41) Cc1cc(C)c2nc(C(F)(F)F)nc(N3CC(C)OC(C)C3)c2c1 (stereo not given)
(42) CCOC(=O)N1CCN(c2nc(C(F)(F)F)nc3c(C)cc(C)cc23)CC1
(43) COc1ccc(Cl)cc1-c1nc(SCC(=O)NC(C)(C)C)n[nH]1

entry no.	37	38	39	40	41	42	43
Rango complex inh	nt	1%	?	0%	1%	-4%	0%
Rango dissoc inh	nt	0%	-23%	0%	9%	-10%	3%
EPAC2 ag	3%	1%	14%	10%	-2%	9%	5%
EPAC1 ag	-27%	6%	-1%	2%	2%	-1%	2%
EPAC1 antagonist	0%	-3%	35µM*	-2%	-9%	-12%	19%
EPAC2 antag	2%	-1%	?	1%	10µM*	-20%	2%
